# Compound activity from PubChem BioAssay.
# IL2 activator: activates IL-2 in a cell-based reporter assay; IL-2 activation reporter assay, cell-based qHTS; stimulated with anti-CD3/CD4/CD28 beads; in transgenic mouse T cells; activation, % (series mostly up to about 46 µM); actives 0.065% (n = 360,000); AID 652025; in the data active = activation above about 50%; inconclusive = mostly about 30% to 49%; also: 0% is about no effect
#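 Readout: EGFP and DsRed signals by fluorescent plate cytometry. Unstimulated transgenic mouse T cells received compound 60 min before antibody-bead stimulation, then incubated 18 h at 37 degrees C.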
# miR-21 reporter: miR-21 reporter, rising signal; HeLa miR-21 FLuc reporter, luciferase, 48 h; Potency, µM (highest dose often 38.3 µM), for the others: top-dose reporter change, positive = more light; 340,000 tested, under 10 active; AID 2288; active = well fitted rising curve with a large enough effect; inconclusive = small, poorly fitted or top-dose-only effect; inactive = no such curve, though single readings can be large or run the other way;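 further: % of control where 0% means no effect; miR-21 action dims this reporter so a rising signal means less miR-21 action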
#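 HeLa miR-21-FLuc reporter line, endogenous miR-21; 2000 cells/well in DMEM/10% FBS; compound titration up to ~40uM final, 48 h, 37 degree Celsius; luciferase detection reagent, 15 min lysis, CCD luminescence.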
# p53 reactivation: re-activators of mutant p53; H1299 p53-A138V BP100-luciferase reporter, luminescence, 24 h; Potency, µM (top dose mostly 92.2 µM), for inactives: top-dose activity change, positive = activation, actives largely listed as activators; actives 0.063% (n = 320,000); also: potency is read from the fitted curve at half-maximal effect; % of control where 0% means no effect; nearly all actives have a fitted effect of over 45% in size
#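 p53-null H1299 cells stably carrying temperature-sensitive p53-A138V and a BP100-luciferase reporter were pinned with compounds (4-point, 1:5 series) and held 24 hrs at 37 deg C. Luminescence was read 10 min after detection reagent.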
# Epigenetic derep: regulators of epigenetic silencing causing reporter derepression in mouse cells; murine LDR cells, GFP reporter derepression, 30 h; Potency, µM (series often up to 53.9 µM), without a hit: top-dose GFP activation, hits mostly activators; actives 0.2% (n = 280,000); AID 1865; also: potency is read from the fitted curve at half-maximal effect; % of control where 0% means no effect; nearly all actives have a fitted effect of over 60% in size
#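 Murine LDR cells bearing a silenced CMV-driven GFP reporter were exposed to compound for 30 h at 37 C. After PBS washes, GFP-positive cells (20-120 um objects) counted by laser-scanning microplate cytometry.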
# PINK1 modulator: changes PINK1 expression; PINK1 immunofluorescence, high-content cytometry, 24 h; Potency, µM (highest dose often 76.6 µM), for inactives: top-dose activation (PINK1 increase), most hits filed as activators; actives 0.2% (n = 410,000); active = well fitted activation curve with a large enough effect; inconclusive = small, poorly fitted or top-dose-only effect; cell line not stated here; also: potency is read from the fitted curve at half-maximal effect; % of control where 0% means no effect; nearly all actives have a fitted effect of over 65% in size
#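 PINK1 protein, normally rapidly degraded, was detected by immunofluorescence after 24 hour compound treatment of a stable cell line. Titration data (5 concentrations) came from laser-scanning cytometry, with CCCP-treated wells as controls.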
# uPA generation: cell surface uPA generation inhibition | cell surface uPA generation assay, qHTS | Potency, µM (series often up to 38.3 µM), for the others: top-dose activity change, negative = inhibition, hits mostly inhibitors | actives 0.31% (n = 330,000) | AID 540303; active = well fitted inhibition curve with a large enough effect; inconclusive = small, poorly fitted or top-dose-only effect; inactive = no such curve, though single readings can be large or run the other way; tested in mouse RAW 264.7 cells; also: potency is read from the fitted curve at half-maximal effect; % is scaled to controls: 0 for no effect and ±100 for the full control effect; nearly all actives have a fitted effect of over 55% in size
# Active calls of the source: *; ? = inconclusive; / = no result; [ ] = another dose, or the depositor's remark. The list is not random: actives were taken first. Their share in the collection is about 0.62%. Unless noted, calls follow the shape of the dose curve; as a rule, active = well fitted curve in the direction sought with a large enough effect; inconclusive = small, poorly fitted or top-dose-only effect, or another doubt; inactive = no such curve, though single readings can be large; an effect the other way counts as inactive or inconclusive.
1: O=[N+]([O-])c1ccc(Nc2nc(NCCN3CCOCC3)nc(Nc3ccc(I)cc3)n2)cc1
2: COc1cc(/C=c2\[nH]c(=O)/c(=C/c3cc(OC)c(OC)c(OC)c3)[nH]c2=O)cc(OC)c1OC
3: Oc1c(C(c2ccccc2Cl)N2CCCC2)ccc2cccnc12 (stereo not drawn)
4: CCC1=NN(C(=O)c2ccccc2O)C(O)(c2ccccc2)C1 (stereo not drawn)
5: CCC1=NN(C(=O)c2ccccc2Br)C(O)(c2ccc(Br)cc2)C1 (stereo not drawn)
6: CN(C)C1CCN(C(=O)c2ccc(-n3c(=O)c(=O)[nH]c4ccccc43)cc2)C1 (stereo not drawn)
7: CN(C)C=Nc1nonc1-c1ccccc1
8: CN(C)C=Nc1c(Br)cc(Br)c2nonc12
9: Cc1ccc2nc(CNC(=O)c3cc(NC(=O)c4ccccc4)cc4ncn(C5CCCC5)c34)cn2c1
10: CCCCOc1ccccc1C1CC(=O)Nc2cc(C)c(C)cc21 (stereo not drawn)

assay / entry,1,2,3,4,5,6,7,8,9,10
IL2 activator,/,/,-4,-2,3,/,0,27,/,/
miR-21 reporter,/,/,?,-4%,-3%,/,-9%,-19%,/,28%
p53 reactivation,/,/,6%,0%,-3%,/,0%,-7%,/,/
Epigenetic derep,/,/,?,/,3%,0%,2%,?,/,2%
PINK1 modulator,1%,2%,5%,-1%,-2%,/,1%,11µM*,0%,1%
uPA generation,/,/,7.9µM*,11µM*,-10%,/,14%,2%,/,/

11: CCOc1ccccc1C1CC(=O)Nc2cc(C)c(C)cc21 (stereo not drawn)
12: Cc1ncc2c(c1CNC(=O)c1ccccc1F)CCN(C(=O)c1csc(-c3cccs3)n1)C2
13: CCN1C(=C(C#N)C#N)C=Cc2cc(C)ccc21
14: C=CC[n+]1c(/C=C2\C=Cc3cc(C)ccc3N2CC)ccc2ccccc21
15: Fc1ccc(N=C2NN=C(c3cc(F)ccc3F)CS2)cc1
16: Fc1ccc(F)c(C2=NNC(=Nc3ccccc3F)SC2)c1
17: COC(=O)c1ccccc1C(=O)N1CCc2c(cnc(C)c2CNC(=O)c2ccccc2F)C1
18: COc1cc(OC)cc(-c2cc3ccc(OC)cc3cn2)c1
19: COc1ccc2cc(-c3ccccc3)ncc2c1
20: COc1ccc(-c2cc3cc(OC)c(OC)cc3cn2)cc1

assay / entry,11,12,13,14,15,16,17,18,19,20
IL2 activator,0,/,-1,0,-5,0,/,-1,0,-3
miR-21 reporter,13%,/,-10%,?,-3%,16%,/,/,-61%,/
p53 reactivation,/,/,4%,-6%,?,?,/,?,?,-3%
Epigenetic derep,/,/,1%,1%,9%,3%,/,/,/,/
PINK1 modulator,4%,1%,1%,?,?,35µM*,0%,3%,1%,1%
uPA generation,7.1µM*,/,-11%,8.9µM*,-23%,-5%,/,3.5µM*,?,-18%

21: COc1ccc2cc(-c3ccsc3)ncc2c1
22: c1ccc(-c2noc(-c3ccno3)n2)nc1
23: c1ccc(-c2noc(-c3ccco3)n2)nc1
24: COc1cccc(CNC(=O)c2c(OC)cc(=O)n3c2CCN(C(=O)c2ccc(Cl)cc2)CC3)c1
25: Clc1ccc(C2=C3CCCCn4c(-c5ccccc5)c[n+](c43)C2)cc1
26: CC1CCCN(c2ccc([N+](=O)[O-])cc2C(=O)c2ccccc2)C1 (stereo not drawn)
27: COc1ccc(Cn2nnnc2CN(Cc2cc3cccc(C)c3[nH]c2=O)C2CCCC2)cc1
28: COc1ccc(Cn2nnnc2CN(Cc2cc3ccc(C)cc3[nH]c2=O)C2CCCC2)cc1
29: c1cc(CNc2ccc3c(c2)OCCO3)ccn1
30: O=C(NCc1ccncc1)Nc1ccc2c(c1)OCO2

assay / entry,21,22,23,24,25,26,27,28,29,30
IL2 activator,-1,1,0,/,2,-2,-2,55*,0,2
miR-21 reporter,/,-28%,-6%,/,17%,26%,-7%,-7%,-29%,-29%
p53 reactivation,?,11%,22µM*,/,0%,4%,-16%,-2%,25µM*,12%
Epigenetic derep,/,1%,-1%,/,1%,0%,0%,2%,-1%,-1%
PINK1 modulator,-1%,3%,-2%,1%,16µM*,2%,13%[38.3 µM],-2%[38.3 µM],-1%,2%
uPA generation,8.9µM*,18%,-1%,/,1%,0.16µM*,-16%,0%,-4%,5%

31: COC(=O)[C@H]1[C@@H]2C[C@H]3c4[nH]c5ccccc5c4CCN3C[C@@H]2CC[C@@H]1O
32: Cn1cc(C2=C(c3ccc(Cl)cc3Cl)C(=O)NC2=O)c2ccccc21
33: Cn1cc(-c2ccccc2C(N)=O)c(=O)c2cc(Cl)ccc21
34: CCN(CC)c1ccc2c(Cl)c(Br)c(=O)oc2c1
35: CCN(CC)c1ccc2c(C)c(Cl)c(=O)oc2c1
36: CCCCCCN1C=CC(=C/C=C(\C#N)C(=O)OCC)C=C1
37: CC(C)(CNC(=O)c1cnn(-c2nccc(-c3cccs3)n2)c1C1CC1)N1CCOCC1
38: CCn1c(-c2cccnc2)nc2cc(NC(=O)COC)cc(C(=O)N3CC[C@@H]4CCCC[C@H]4C3)c21
39: Cc1nonc1C(=O)N/N=C/c1ccc([N+](=O)[O-])o1
40: O=C(N/N=C/c1ccc([N+](=O)[O-])o1)C(O)c1ccccc1 (stereo not drawn)

assay / entry,31,32,33,34,35,36,37,38,39,40
IL2 activator,/,5,-1,27,-1,1,/,/,0,0
miR-21 reporter,/,5%,-3%,24%,-14%,-2%,/,/,17%,?
p53 reactivation,/,10%,4%,-7%,1%,4%,/,/,-8%,10%
Epigenetic derep,0%,14µM*,0%,11µM*,1%,10µM*,/,/,6%,0%
PINK1 modulator,/,2%,1%,-2%,0%,13µM*,2%,3%,2%,45µM*
uPA generation,/,19%,0%,-12%,-7%,-5%,/,/,?,?

# Compounds 37 through 40 from above:
37: CC(C)(CNC(=O)c1cnn(-c2nccc(-c3cccs3)n2)c1C1CC1)N1CCOCC1
38: CCn1c(-c2cccnc2)nc2cc(NC(=O)COC)cc(C(=O)N3CC[C@@H]4CCCC[C@H]4C3)c21
39: Cc1nonc1C(=O)N/N=C/c1ccc([N+](=O)[O-])o1
40: O=C(N/N=C/c1ccc([N+](=O)[O-])o1)C(O)c1ccccc1 (stereo not drawn)

assay / entry,37,38,39,40
IL2 activator,/,/,0,0
miR-21 reporter,/,/,17%,?
p53 reactivation,/,/,-8%,10%
Epigenetic derep,/,/,6%,0%
PINK1 modulator,2%,3%,2%,45µM*
uPA generation,/,/,?,?

# Remaining list, next part.
41: Cc1cc(C(=O)N/N=C/c2ccc([N+](=O)[O-])o2)c(C)o1
42: COc1cc(=O)n2c(c1C(=O)N(C)Cc1nonc1C)CCN(Cc1c(F)cccc1F)CC2
43: CC(C)(CNC(=O)c1cnn(-c2ncc3c(n2)-c2ccccc2CCC3)c1C1CC1)N1CCOCC1
44: O=C(CSc1ccccn1)N/N=C/c1cc([N+](=O)[O-])ccc1O
45: O=[N+]([O-])c1ccc(O)c(/C=N\N=C2c3ccccc3-c3ccccc32)c1
46: Cc1occc1C(=O)Nc1cccc(-c2nc(CNC(=O)c3ccc(N4CCCCC4)cc3)c(C)o2)c1
47: COc1ccccc1-c1ccnc(-n2ncc(C(=O)N(C)C(C)c3nc(C)cs3)c2C2CC2)n1 (stereo not drawn)
48: Cc1ccc(NC(=O)O/N=C/c2ccc(F)cc2)cc1
49: O=C(Nc1ccccc1)O/N=C/c1ccc(F)cc1

assay / entry,41,42,43,44,45,46,47,48,49
IL2 activator,0,/,/,0,0,/,/,1,0
miR-21 reporter,?,/,/,23%,-8%,/,/,-54%,-48%
p53 reactivation,-11%,/,/,4%,-2%,/,/,/,10%
Epigenetic derep,0%,/,/,-5%,-1%,/,/,/,/
PINK1 modulator,9%,1%,0%,3%,10µM*,1%,0%,1%,0%
uPA generation,10µM*,/,/,3.5µM*,-2%,/,/,-3%,7.1µM*
